The target in data set [1] is VCAM-1/α4β1 integrin binding (Homo sapiens, UniProt P05556+P13612). Description: Assay of antagonistic activity to VCAM-1/α4β1 integrin binding under the existence of blood serum (Jurkat cell adhesion to VCAM-1/Fc). The note with it: read-out: IC50, antagonistic activity to VCAM-1/α4β1 integrin binding, Jurkat cells, recombinant human VCAM-1/Fc, 50% human blood serum. As for the experimental part: Assay of Antagonistic Activity to VCAM-1/α4β1 Integrin Binding Under the Existence of Blood Serum
The capacity of a test substance antagonistic to the binding of cell strain of human T cells, Jurkat (ATCC TIB-152), known to express integrin α4β1, to VCAM-1 was determined.
Fifty μl/well of a solution (500 ng/ml) of recombinant human VCAM-1/Fc (R & D systems) diluted with buffer A (0.1 M NaHCO3, pH 9.6) was added to a 96-well microtiter plate (Nunc Maxisorp). After the incubation at 4° C. overnight and washing once with PBS, a buffer (buffer B) obtained by diluting Block Ace (Snow Brand Milk Products Co., Ltd.) with PBS to ½ concentration was added in an amount of 150 μl/well. After the incubation at room temperature for 2 hours, buffer B was removed and the plate was washed with PBS once.
Jurkat cells were washed with Dulbecco modified Eagle medium (SIGMA, hereinafter referred to as “DMEM”) once. Then, the cells were again suspended in a binding buffer (DMEM containing 20 mM HEPES, 0.1% BSA, 2 mM MnCl2 and 50% human blood serum (Sigma)) to become 1×10^6 cells/mL.
Sixty μl of a test substance of various concentrations obtained by the dilution with the binding buffer was added to a round-bottom, 96-well plate (IWAKI). Immediately thereafter, 60 μl of the Jurkat cells (1×10^6 cells/ml) were added thereto and shaken on a plate shaker (IKA-Labortechnik, IKA-SCHUTTLER MTS-4) at 1000 rpm for 10 seconds. In 120 μL of the cell suspension to which the test substance was added, each 100 μL thereof was transferred on the VCAM-1/Fc-coated plate and incubated in dark place at room temperature for 60 minutes. After the shaking on the plate shaker at 1000 rpm for 30 seconds, the solution was immediately removed. Then, the unbound cells were removed by washing them with PBS once. A buffer C (PBS containing 0.82% Triton X-100) was added to the plate in an amount of 70 μL/well. After the shaking on the plate shaker at 1000 rpm for 5 minutes, the bound Jurkat cells were lysed. After centrifuging the cells on a plate centrifuge (SIGMA 4-15C) at room temperature at 2500 rpm for 5 minutes, 50 μL of supernatant thereof was transferred to a 96-well microtiter plate (Nunc Maxisorp). Each 50 μL of Substrate Buffer (Promega, CytoTox 96 Non-Radioactive Cytotoxicity Assay) was added thereto, shaken on a plate shaker at 1000 rpm for 10 seconds and reacted in dark place at room temperature for 30 minutes. Then, each 50 μL of Stop Solution (Promega, CytoTox 96 Non-Radioactive Cytotoxicity Assay) was added thereto and shaken on a plate shaker at 1000 rpm for 10 seconds. Its absorbance of 490 nm was determined with a plate reader (Molecular Devices, Vmax). The absorbance thus obtained detects an activity of lactate dehydrogenase (LDH) dissolved in the supernatant of each well. Namely, the absorbance is proportional to the number of remaining Jurkat cells on the plate via the binding to VCAM-1. The test was conducted in duplicate and the binding rate of each test substance in various concentrations was determined while the absorbance of the test substance-free well was determined to be 100% and the absorbance of the Jurkat-cell-free well was determined to be 0%. The concentration for the 50% inhibition of binding, IC50, was calculated.

Amino acid sequences for entries named in this document (tags omitted). Residues count along the entry.
UniProt P05556, 21-798 limits assumed: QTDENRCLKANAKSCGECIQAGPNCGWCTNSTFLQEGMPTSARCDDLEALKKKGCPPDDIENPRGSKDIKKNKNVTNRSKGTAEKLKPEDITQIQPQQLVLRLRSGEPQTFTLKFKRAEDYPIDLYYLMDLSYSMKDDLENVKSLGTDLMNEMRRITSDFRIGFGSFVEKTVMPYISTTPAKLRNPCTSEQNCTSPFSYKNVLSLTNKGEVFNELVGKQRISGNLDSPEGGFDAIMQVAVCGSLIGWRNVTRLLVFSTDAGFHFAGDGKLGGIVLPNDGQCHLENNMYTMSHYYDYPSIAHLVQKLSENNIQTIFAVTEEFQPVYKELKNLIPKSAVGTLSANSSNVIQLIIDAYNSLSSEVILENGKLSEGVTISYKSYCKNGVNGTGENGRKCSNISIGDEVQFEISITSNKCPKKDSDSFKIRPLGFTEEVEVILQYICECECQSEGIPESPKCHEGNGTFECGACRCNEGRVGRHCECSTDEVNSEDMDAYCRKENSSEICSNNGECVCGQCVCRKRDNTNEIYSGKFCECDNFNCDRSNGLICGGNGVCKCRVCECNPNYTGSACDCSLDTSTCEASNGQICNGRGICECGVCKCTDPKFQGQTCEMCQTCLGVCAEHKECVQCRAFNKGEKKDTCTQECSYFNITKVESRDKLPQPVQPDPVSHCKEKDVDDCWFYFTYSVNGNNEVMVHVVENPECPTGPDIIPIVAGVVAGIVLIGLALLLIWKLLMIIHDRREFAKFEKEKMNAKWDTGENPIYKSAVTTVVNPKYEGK
UniProt P13612, 34-1032 limits assumed: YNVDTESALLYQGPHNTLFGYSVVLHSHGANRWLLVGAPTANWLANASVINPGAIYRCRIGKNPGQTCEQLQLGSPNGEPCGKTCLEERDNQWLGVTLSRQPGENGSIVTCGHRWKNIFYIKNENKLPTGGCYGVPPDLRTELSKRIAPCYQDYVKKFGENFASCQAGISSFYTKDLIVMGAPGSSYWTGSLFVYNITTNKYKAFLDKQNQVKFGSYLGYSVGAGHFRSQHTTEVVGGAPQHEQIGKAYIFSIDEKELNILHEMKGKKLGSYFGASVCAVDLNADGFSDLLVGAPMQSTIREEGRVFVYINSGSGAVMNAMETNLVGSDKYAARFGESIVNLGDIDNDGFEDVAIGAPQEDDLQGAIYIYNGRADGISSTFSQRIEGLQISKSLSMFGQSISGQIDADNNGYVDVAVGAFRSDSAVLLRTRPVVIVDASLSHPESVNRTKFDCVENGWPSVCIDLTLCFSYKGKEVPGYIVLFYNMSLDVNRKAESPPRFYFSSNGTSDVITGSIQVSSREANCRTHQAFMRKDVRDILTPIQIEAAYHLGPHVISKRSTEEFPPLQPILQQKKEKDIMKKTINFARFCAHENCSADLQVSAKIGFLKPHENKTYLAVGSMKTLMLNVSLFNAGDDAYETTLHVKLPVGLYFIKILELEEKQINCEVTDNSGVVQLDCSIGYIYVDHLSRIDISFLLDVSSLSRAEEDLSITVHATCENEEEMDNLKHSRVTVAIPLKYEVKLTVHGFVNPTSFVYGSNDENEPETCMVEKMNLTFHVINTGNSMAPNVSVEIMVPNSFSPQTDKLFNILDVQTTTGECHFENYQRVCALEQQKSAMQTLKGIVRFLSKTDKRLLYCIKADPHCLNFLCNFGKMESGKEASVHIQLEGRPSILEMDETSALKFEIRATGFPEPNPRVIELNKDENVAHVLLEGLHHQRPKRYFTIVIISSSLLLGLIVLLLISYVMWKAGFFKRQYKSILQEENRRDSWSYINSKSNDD

Data set [2] can be described thus: Pharmacokinetic study by intravenous administration to a rat. The note with it: intravenous single dose, 1 mg/mL solution at 1 mL/kg, Wistar rat, active form. On the procedure: Pharmacokinetic Study by Intravenous Administration to a Rat
After the compounds of the present invention wherein R11 to R141 are a hydroxyl group, which were active forms, were weighed by a scale, they were adjusted by dimethylsulfoxide to become 10 mg/mL. Polyethylene glycol 400 and distilled water were added thereto to prepare 1 mg/mL of an administration solution. 1 mg/mL of the administration solution was intravenously administered as a single dose to a Wistar rat in an amount of 1 mL/kg. 1, 5, 10, 30, 60 and 180 minutes later, the drug concentration in the blood plasma obtained by blood drawing from its cervical vein over time under anesthesia was determined with LC/MS. From the obtained results, the area under the plasma concentration time curve from zero to time infinity (AUCinf (iv)) was calculated in accordance with the trapezoidal method of pharmacokinetic analysis. The total body clearance (CLtot, [L/hr/kg]) was calculated as an index of drug disappearance in the blood plasma from a dose [mg/kg] and AUC [μg×hr/mL] in accordance with the formula: CLtot=Dose÷AUCinf(iv).

Results on 10 compounds are retold here after patent US7345049B2, “Phenylalanine derivatives” (Ajinomoto Co., Inc., priority 2003, dated 2008).

Each structure is given as a SMILES string. Where two headings read alike, the source gives them in different places.

Turning to `Cn1c(=O)n(-c2ccc(C[C@H](NC(=O)c3c(Cl)cccc3Cl)C(=O)O)cc2)c(=O)c2cc(CNC3CCC3)ccc21`, in data set [1] (tested form: TFA), the IC50 is 8.2 nM. Consider `CNCc1ccc2c(c1)c(=O)n(-c1ccc(C[C@H](NC(=O)c3c(F)cccc3Cl)C(=O)O)cc1)c(=O)n2C`, for which, in data set [1], the IC50 was found to be 10.5 nM. On to `CCNCCOc1ccc2c(c1)c(=O)n(-c1ccc(C[C@H](NC(=O)c3c(Cl)cccc3Cl)C(=O)O)cc1)c(=O)n2C`, for which the IC50 in data set [1] (tested form: TFA) worked out at 11.9 nM. For `CCN(C)CCOc1ccc2c(c1)c(=O)n(-c1ccc(C[C@H](NC(=O)c3c(Cl)cccc3Cl)C(=O)O)cc1)c(=O)n2C`, the IC50 in data set [1] (tested form: TFA) stood at 19.5 nM. Consider `CCCNCCOc1ccc2c(c1)c(=O)n(-c1ccc(C[C@H](NC(=O)c3c(Cl)cccc3Cl)C(=O)O)cc1)c(=O)n2C`, for which, in data set [1] (tested form: TFA), the IC50 came out at 16.9 nM.

As to `CCN(CC)CCOc1ccc2c(c1)c(=O)n(-c1ccc(C[C@H](NC(=O)c3c(Cl)cccc3Cl)C(=O)O)cc1)c(=O)n2C`, the IC50 in data set [1] (tested form: TFA) is 19.7 nM. As to `CN(C)Cc1ccc2c(c1)c(=O)n(-c1ccc(C[C@H](NC(=O)c3c(Cl)cccc3Cl)C(=O)O)cc1)c(=O)n2C`, the IC50 in data set [1] turned out to be 13.9 nM. In addition, in data set [2], the “Total body clearance CLtot” value is 1.7 mL/min/kg. For `Cn1c(=O)n(-c2ccc(C[C@H](NC(=O)c3c(Cl)cccc3Cl)C(=O)O)cc2)c(=O)c2cc(OCCN3CCCC3)ccc21`, the IC50 in data set [1] (tested form: TFA) was found to be 14.6 nM. On the same count and under the same terms, for `Cn1c(=O)n(-c2ccc(C[C@H](NC(=O)c3c(Cl)cccc3Cl)C(=O)O)cc2)c(=O)c2ccncc21` the value was 3.6 nM; for `CNCCOc1ccc2c(c1)c(=O)n(-c1ccc(C[C@H](NC(=O)c3c(Cl)cccc3Cl)C(=O)O)cc1)c(=O)n2C`, 12.4 nM.
